OPERA 2.9 data: melting point values

Values as listed in the OPERA 2.9 repository of K. Mansouri.

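The numbers are reported measurements, compiled and curated for the OPERA QSAR suite. The files give a single number for a compound and property, which may rest on several reports. Method and conditions are not stated for these values. A value may pool stereoisomers or salt forms, and the file does not say which form was measured. Unmarked limits or estimates from the upstream databases cannot be ruled out.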

Melting points are in °C. Cells with "n/a" have no entry in this list.

SMILES,name,mp (°C)
C=C(C)C(=O)OC1CCCCC1,Cyclohexyl methacrylate,-104
Cc1ccc(N)c(OCc2ccccc2)c1,2-(benzyloxy)-4-methylaniline,69
COS(=O)(=O)[O-].C[N+](C)(C)c1ccc2ccc(O)cc2c1,n/a,141.2
COC(=O)c1cc2c(Br)cccc2[nH]1,methyl 4-bromo-1H-indole-2-carboxylate,160
C[C@]12CC(=O)[C@H]3[C@@H](CCC4=CC(=O)CC[C@@]43C)[C@@H]1CC[C@@H]2C(=O)CO,"21-Hydroxypregn-4-ene-3,11,20-trione",184
Cc1ccc(C)c(C(=O)CCC(=O)O)c1,"4-(2,5-Dimethylphenyl)-4-oxobutanoic acid",82
[Na+].[Na+].[O-]c1c(-c2[nH]c3ccccc3c2[O-])[nH]c2ccccc12,"[2,2'-Bi-1H-indole]-3,3'-diol, disodium salt",125
Cc1ccc(C)n1-c1ccc(N)cc1,"4-(2,5-dimethyl-1H-pyrrol-1-yl)aniline",94
CN1CCN(C(=O)c2ccccc2N)CC1,(2-Aminophenyl)(4-methylpiperazin-1-yl)methanone,75
CCN(CC)S(=O)(=O)c1ccc2c(c1)CCN2,"N,N-diethylindoline-5-sulfonamide",81
O=C(O)c1cc(F)c(F)cc1C(=O)O,"4,5-difluorophthalic acid",159
CN(C)c1cccc(C(=O)NN)c1,3-(dimethylamino)benzohydrazide,100
CN(C)c1ccc(C(=O)O)cn1,"3-Pyridinecarboxylic acid, 6-(dimethylamino)-",226
CN(C)S(=O)(=O)c1ccc(N)c(N)c1,"3,4-diamino-N,N-dimethylbenzenesulfonamide",194
CC(C)c1cc(=O)oc2cc(O)ccc12,7-Hydroxy-4-isopropyl-chromen-2-one,78
CCCC[C@H]1CO[C@H](c2ccc(-c3cc(F)c(C(F)(F)Oc4cc(F)c(F)c(F)c4)c(F)c3)c(F)c2)OC1,n/a,70
COC(=O)c1c(-c2ccc(F)cc2)csc1N,methyl 2-amino-4-(4-fluorophenyl)thiophene-3-carboxylate,136
O=C(O)CCCNc1ccc([N+](=O)[O-])cc1,4-[(4-nitrophenyl)amino]butanoic Acid,159
C[C@H](O)[C@H](O)[C@H]1CNc2[nH]c(N)nc(=O)c2N1,(6R)-Tetrahydrobiopterin,252.5
CCOC(=O)c1c(-c2ccc(OC)c(OC)c2)csc1N,"ethyl 2-amino-4-(3,4-dimethoxyphenyl)thiophene-3-carboxylate",224
NC(=S)C1CC1,Cyclopropanecarbothioamide,113
Cc1nnc2ccc(Cl)nn12,"6-chloro-3-methyl[1,2,4]triazolo[4,3-b]pyridazine",104
Cc1cccc(-n2[nH]nnc2=S)c1,1-m-Tolyl-1H-tetrazole-5-thiol,157
COc1ccc(-c2n[nH]c(=S)n2N)cc1OC,n/a,206
CC(OC(=O)ON1C(=O)CCC1=O)OC(=O)C(C)C (stereo not given),n/a,58.5
CCCc1nc2c(C)cc(-c3nc4ccccc4n3C)cc2[nH]1,n/a,130.7
COC(=O)c1ccc(C(Br)Br)cc1,Methyl 4-(dibromomethyl)benzoate,43.5
O=C(O)CN1C(=O)CSc2ccccc21,"(3-Oxo-2,3-dihydro-4H-1,4-benzothiazin-4-yl)acetic acid",152
CCOC(=O)[C@H](CCc1ccccc1)N[C@@H](C)C(=O)O,N-[1(S)-Ethoxycarbonyl-3-phenylpropyl]-L-alanine,150
C[n+]1ccn(CCC(F)(F)C(F)(F)C(F)(F)C(F)(F)C(F)(F)C(F)(F)F)c1.F[P-](F)(F)(F)(F)F,n/a,79.5
NCc1ccccn1,2-Pyridinemethanamine,81
CCCCCCCCCCCCCCCC(=O)OCC[N+](C)(C)CCOC(=O)CCCCCCCCCCCCCCC.[Cl-],Dipalmitoylethyl dimonium chloride,82
O=[N+]([O-])C(Br)=Cc1ccccc1,beta-Bromo-beta-nitrostyrene,68.06
COCCCN1CCC(NC(=O)c2cc(Cl)c(N)c3c2OCC3)CC1,Prucalopride,196
O=C(CCl)N1CCSc2ccccc21,"2-Chloro-1-(2,3-dihydro-4H-1,4-benzothiazin-4-yl)ethan-1-one",54
CCCCCC[C@@H](O)C/C=C\CCCCCCCC(=O)NCCCN(C)C,n/a,-31.3
Cc1ccc(C)c(NC(N)=S)c1,"Urea, 2-thio-1-(2,5-xylyl)-",141
O=[N+]([O-])c1cc2c(cc1Br)OCCO2,"6-Bromo-7-nitro-2,3-dihydro-1,4-benzodioxine",168
CCOC(=O)Cc1ccc(C(C)=O)cc1,Ethyl (4-acetylphenyl)acetate,56
Nc1ccc(S(N)(=O)=O)cc1[N+](=O)[O-],4-amino-3-nitrobenzenesulfonamide,207
c1ccc2c3c(ccc2c1)-c1c(ccc2ccccc12)C3,"13H-Dibenzo[a,g]fluorene",174
Cc1ccc2c(c1)=C(NO)C(=O)N=2,n/a,240
O=c1nc(CCl)[nH]c2c1oc1ccccc12,"2-(chloromethyl)[1]benzofuro[3,2-d]pyrimidin-4(3H)-one",99
O=C(Nc1ccc(O)cc1)c1cccs1,N-(4-hydroxyphenyl)thiophene-2-carboxamide,167
CC(C)COC(=O)C1CCCCC1C(=O)OCC(C)C (stereo not given),n/a,-22
O=C(O)c1cc2cc(Br)cc(Br)c2o1,"5,7-Dibromo-benzofuran-2-carboxylic acid",280
CCC[C@H]1CC[C@H](c2cccc(F)c2)CC1,1-Fluoro-3-(trans-4-propylcyclohexyl)benzene,-10
CCC(=O)Nc1cccc(C(=O)O)c1,3-(propanoylamino)benzoic Acid,230
CCOC(=O)c1cc([N+](=O)[O-])cnc1C,Ethyl 2-methyl-5-nitronicotinate,48.5
CCCC(=O)OCCc1ccccc1,2-Phenylethyl butanoate,-10.13
O=C(O)CCOc1ccc(Br)cc1,3-(4-bromophenoxy)propanoic acid,146
Cc1ccc(S(N)(=O)=O)cc1C,"3,4-Dimethylbenzenesulfonamide",118

The 4 highest values of mp among the entries above:

SMILES	name	mp (°C)
O=C(O)c1cc2cc(Br)cc(Br)c2o1	5,7-Dibromo-benzofuran-2-carboxylic acid	280
C[C@H](O)[C@H](O)[C@H]1CNc2[nH]c(N)nc(=O)c2N1	(6R)-Tetrahydrobiopterin	252.5
Cc1ccc2c(c1)=C(NO)C(=O)N=2	n/a	240
CCC(=O)Nc1cccc(C(=O)O)c1	3-(propanoylamino)benzoic Acid	230